# Results from ChEMBL document CHEMBL5260848, “Recent advancements in the development of bioactive pyrazoline derivatives” (Eur J Med Chem, 2020).
# Protein sequences, listed by entry. Tags and fused reporters are not part of them. Lines headed by an entry give the natural chain unless they say otherwise; changes in a name come on top.
# UniProt P00915: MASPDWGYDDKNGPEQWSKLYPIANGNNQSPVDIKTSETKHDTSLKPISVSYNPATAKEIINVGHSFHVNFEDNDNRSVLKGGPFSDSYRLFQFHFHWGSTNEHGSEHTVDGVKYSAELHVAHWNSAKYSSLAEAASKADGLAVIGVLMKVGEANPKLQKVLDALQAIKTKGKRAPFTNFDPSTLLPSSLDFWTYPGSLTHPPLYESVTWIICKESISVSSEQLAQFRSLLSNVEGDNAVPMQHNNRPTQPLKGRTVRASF
# Molecular target: Carbonic anhydrase 1 (Homo sapiens, UniProt P00915)
structure (smiles),measurement,value
COc1cc(/C=C/C(=O)c2ccc(N)cc2)cc(OC)c1OC,Ki,5.13 nM
